Experimental data published in patent US6521594 (dated 2003).

Chains of the proteins cited; added tags and fusions are not shown. Residues count along the entry.
Platelet glycoprotein IIb/IIIa, UniProt P05106, 27-788, chain 2 of 2: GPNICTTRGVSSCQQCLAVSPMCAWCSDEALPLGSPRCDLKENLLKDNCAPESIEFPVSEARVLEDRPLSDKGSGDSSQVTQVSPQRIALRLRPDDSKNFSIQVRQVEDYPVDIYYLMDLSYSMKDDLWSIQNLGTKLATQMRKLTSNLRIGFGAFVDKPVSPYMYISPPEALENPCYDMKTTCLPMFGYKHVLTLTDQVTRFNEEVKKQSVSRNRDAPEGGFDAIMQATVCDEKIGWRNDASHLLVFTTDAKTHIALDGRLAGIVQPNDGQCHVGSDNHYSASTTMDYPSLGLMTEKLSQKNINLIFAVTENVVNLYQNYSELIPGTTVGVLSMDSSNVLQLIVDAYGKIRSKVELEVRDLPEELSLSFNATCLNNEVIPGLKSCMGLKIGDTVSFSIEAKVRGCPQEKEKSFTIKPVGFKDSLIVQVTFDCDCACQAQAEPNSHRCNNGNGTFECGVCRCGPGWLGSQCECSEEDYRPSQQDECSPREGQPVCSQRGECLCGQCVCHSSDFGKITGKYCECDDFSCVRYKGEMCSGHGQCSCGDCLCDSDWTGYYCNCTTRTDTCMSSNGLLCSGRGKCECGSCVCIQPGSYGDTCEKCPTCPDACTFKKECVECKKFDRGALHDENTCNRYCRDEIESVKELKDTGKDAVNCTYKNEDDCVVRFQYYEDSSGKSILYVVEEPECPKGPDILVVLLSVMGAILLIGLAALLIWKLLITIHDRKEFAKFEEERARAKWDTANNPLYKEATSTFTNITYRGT

Target: Platelet glycoprotein IIb/IIIa (human, UniProt P08514 32-1039; P05106 27-788)
Assay: ELISA

How did the IC50 turn out when CNPRGDXXC (N-terminal acetyl; O-Me-Tyr at 7; Cit at 8; C-terminal amide) [Ac-CNPRGD(Y-OMe)(Cit)C-NH2] was run?
The IC50 was 352 nM.
